# Test results published in patent US7932290B2, “Method for the treatment of metabolic disorders” (Wellstat Biologics Corporation, priority 2003, dated 2011).
# Protein sequences, listed by entry. Tags and fused reporters are not part of them. Residues count along the entry.
# UniProt P37238, 238-503: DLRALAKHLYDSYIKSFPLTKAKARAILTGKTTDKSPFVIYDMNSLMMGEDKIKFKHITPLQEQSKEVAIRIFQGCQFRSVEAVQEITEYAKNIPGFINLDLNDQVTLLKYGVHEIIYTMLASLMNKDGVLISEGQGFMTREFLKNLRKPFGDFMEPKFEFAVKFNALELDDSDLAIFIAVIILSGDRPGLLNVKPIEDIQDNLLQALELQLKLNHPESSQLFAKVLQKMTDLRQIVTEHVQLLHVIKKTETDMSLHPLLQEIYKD
# Experiments:
# [1] = target: T1, Mouse PPARγ LBD fusion protein (Mus musculus, UniProt P37238); experiment: Transcription activation potential, GAL4 luciferase reporter in C3A cells; format: cell-based
# Experimental: (§1) Cells were seeded in 24 well plates the day prior to transfection at 5×10^4−2×10^5 cells/well, depending upon cell type. Cells were transfected using Lipofectamine 2000 reagent from Invitrogen. A total of 0.8 μg DNA/well was added to 50 μL of Optimem Reduced Serum media (serum free; Gibco). Lipofectamine 2000 was added (2.5 μL/well) to another tube containing 50 μL of Optimem media. Plasmid DNA was added at a ratio of 4:3 (reporter:activator); where appropriate, salmon sperm DNA was substituted for activator expressing plasmid. […] DNA constructs containing the mouse PPARα or PPARγ LBD fused to the GAL4 DNA binding domain were also used. The two solutions were incubated at room temperature for 5 min, and then combined. The combined solution was incubated at room temperature for approximately 30 min. Cells were washed once with PBS, and 100 μL of transfection mix added to each well. Plates were incubated at 37° C. in a 5% CO2 incubator for 4.5 hr, followed by aspiration of the transfection mix, with plates refed using EMEM complete media (supplemented with 10% FBS, 1× Glutamine). 24 hr post-transfection, plates were treated with the appropriate compounds in EMEM complete media, followed by washing once with PBS and addition of 100 μL 1× reporter lysis buffer/well (Promega) 24 hr after treatment. Plates went through one freeze/thaw cycle prior to analysis. Approximately 10 μL of lysate was added to 100 μL of firefly luciferase substrate, mixed by pipetting, and analyzed on a luminometer for 10 s using the integration function (relative luciferase units/RLU) or on a Microbeta Trilux (luciferase counts per second/LCPS). Each treatment was performed in triplicate, and in multiple, separate experiments.
# [2] = target: T1, Mouse PPARγ LBD fusion protein; experiment: Transcription activation potential, GAL4 luciferase reporter in Hepa1.6 cells; format: cell-based; details: 3 μM
# Experimental: as §1, with “24 hr post-transfection, plates were treated with the appropriate compounds in EMEM complete media, followed by washing once with PBS and addition of 100 μL 1× reporter lysis buffer/well (Promega) 24 hr after treatment. Plates went through one freeze/thaw cycle prior to analysis.” left out, “Each treatment was performed in triplicate, and in multiple, separate experiments.” left out
smiles,measurement,setting,value
"CN(CCOc1ccc(CC2SC(=O)NC2=O)cc1)c1ccccn1 (stereo not shown) [Rosiglitazone, rosiglitazone, reference compound]",transcription activation potential (luciferase) ± standard deviation,"[1]; 3 μM, Table 21b",17264 ± 8260 RLU
same,transcription activation potential (luciferase) ± standard deviation,"[1]; Table 20b line 1 μM, rosiglitazone at one-fifth the listed concentration (0.2 μM)",196.8 ± 138.9 LCPS
same,transcription activation potential (luciferase) ± standard deviation,"[1]; Table 20b line 3 μM, rosiglitazone at one-fifth the listed concentration",60.1 ± 29.14 LCPS
same,transcription activation potential (luciferase) ± standard deviation,"[1]; Table 20b line 10 μM, rosiglitazone at one-fifth the listed concentration",432.7 ± 137.4 LCPS
same,transcription activation potential (luciferase) ± standard deviation,"[1]; Table 20b line 30 μM, rosiglitazone at one-fifth the listed concentration",378 ± 274.5 LCPS
same,transcription activation potential (luciferase) ± standard deviation,"[1]; Table 20b line 100 μM, rosiglitazone at one-fifth the listed concentration",308.6 ± 110.1 LCPS
same,transcription activation potential (luciferase) ± standard deviation,[2],1817 ± 331 RLU
